Measured affinities in a library of Ab-14 heavy chain variants

All variants were tested on one target, the spike HR2 peptide PDVDLGDISGINAS (SARS-CoV-2).

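Phage display of a naive human antibody library on the peptide gave the parent. These sequences belong to a second round, designed from the earlier measurements on random variants of the parent. Their group label is 14H_Rand (Rand: our label for a block that the file lists under HC and that is probably the random mutants of the ten best first-round binders). In AlphaSeq, yeast of one mating type display the scFv and yeast of the other type display the target. Mating (16 h, 30 °C) was followed by selection of diploids and sequencing of their barcodes. Read counts were normalised to the haploid input and turned into Kd by a linear fit to BCL2-family pairs of known affinity, for each replicate. Mating was done six times.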

Each scFv is VH, a (GGGGS)3 linker, VL, as in the parent Ab-14, and differs from it in the CDRs of the heavy chain only.
VH: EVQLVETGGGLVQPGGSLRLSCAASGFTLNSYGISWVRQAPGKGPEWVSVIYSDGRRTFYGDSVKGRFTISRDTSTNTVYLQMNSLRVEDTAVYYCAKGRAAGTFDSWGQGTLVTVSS
VL: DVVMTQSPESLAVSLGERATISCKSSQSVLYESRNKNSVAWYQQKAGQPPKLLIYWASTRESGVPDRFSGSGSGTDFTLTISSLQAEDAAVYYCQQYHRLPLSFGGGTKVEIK

The parent's heavy chain CDRs are GFTLNSYGIS, VIYSDGRRTFYGDSVK, GRAAGTFDS; each variant's own CDRs replace them letter for letter.
Affinities are written as log10 Kd with Kd in nM; a lower number is a better binder.
A mean of the replicates is given; it leaves out those without a signal.
Where no diploid with the target was found in that replicate, the entry reads "n.d.": below detection, most likely a poor binder, though not proof of it.
The range of this assay differs from that of the first round, and the authors advise against merging the two.

CDR-H1,CDR-H2,CDR-H3,"replicates, log10 nM",mean log10 Kd (nM),control signals
GFTLNDYGIS,VIYSDGRRTFYGDSVK,GRALMTKIS,n.d. / n.d. / n.d. / n.d. / n.d. / n.d.,n.d.,0/18
GFTLNSYGIS,VIYSDGRRTPYDDSVK,GQWAGTFDS,n.d. / n.d. / n.d. / n.d. / n.d. / n.d.,n.d.,0/18
GFTLNQYGIS,VIYSDGRRTFYSDSVK,GRAAGFNDS,n.d. / n.d. / n.d. / n.d. / n.d. / n.d.,n.d.,0/18
GFTLNDYGIS,VIYSDGRRTQYHDSVK,GRAAGTFDS,n.d. / 1.91 / n.d. / 1.36 / n.d. / n.d.,1.64,0/18
GFDLNSYGIS,VKYSDGRRTFYGDSGK,GRAAGWFQS,n.d. / n.d. / n.d. / n.d. / n.d. / n.d.,n.d.,0/18
GFTLNQRGIS,VIYSDGRRTCYSDSVK,GRAAGFFDS,0.81 / n.d. / n.d. / n.d. / n.d. / n.d.,0.81,0/18
GNTLNQDGIS,VIYSDGRRTFYSDSVK,GDAAGFFDS,n.d. / n.d. / n.d. / n.d. / n.d. / 2.92,2.92,0/18
GFTLNHYGIS,VIYSCGRRTFYDDLVK,GELARTFDS,n.d. / n.d. / n.d. / n.d. / n.d. / n.d.,n.d.,0/18
GFTLNSYGIS,VPYADDIRTFYGDSVK,GRAAGTNKS,n.d. / n.d. / n.d. / n.d. / n.d. / n.d.,n.d.,0/18
GFDLNSYGIS,VIFSDGRRTFYGDSVK,GRAAGVFNS,n.d. / 2.21 / n.d. / n.d. / n.d. / n.d.,2.21,1/18 (1.41)
GFTLNQNGIV,VIYSDGRRTFYSDSVK,YRAAGFTDS,n.d. / n.d. / n.d. / n.d. / n.d. / n.d.,n.d.,1/18 (2.06)
VFDLNSYGIS,VIYFKGRRWFYGDSVK,GRAAGWFNS,n.d. / n.d. / n.d. / n.d. / n.d. / n.d.,n.d.,0/18
QFDCNSYGIS,VIYSDGRRTVYGDSVK,GRAAGWFNS,n.d. / n.d. / n.d. / n.d. / n.d. / n.d.,n.d.,0/18
GFTLNDYLIE,VIYSDGRRTFYGDSVK,GRAALTFIS,n.d. / n.d. / n.d. / n.d. / n.d. / n.d.,n.d.,0/18
GFTLNSYGIS,VIYSDGRRTFYSDSLK,GRAGFTFDS,n.d. / n.d. / n.d. / n.d. / n.d. / n.d.,n.d.,0/18
GFTLNQYGIS,VIYSDGRRRFYSDSVK,GRAAGFFDS,n.d. / n.d. / n.d. / n.d. / n.d. / n.d.,n.d.,0/18
GFTLNDYGIS,VRYSDGRRTQYIDSVK,GRAAGTFDS,n.d. / n.d. / n.d. / n.d. / n.d. / n.d.,n.d.,0/18
NFTLVSYGIS,VIYADGRRTFYGDSVK,GRAAGTTKS,n.d. / n.d. / n.d. / n.d. / n.d. / n.d.,n.d.,0/18
GFTLNEYGIS,VIYSDGRRTAYTDSVK,GRFAGTFDP,n.d. / n.d. / n.d. / n.d. / n.d. / n.d.,n.d.,0/18
GFTLNSYGIS,VIYRDGRRTFYDDSVK,GQLAKTFDS,n.d. / n.d. / n.d. / n.d. / n.d. / n.d.,n.d.,1/18 (1.84)
GFTLDSYHIS,VIYSDGRRTFYGDSVK,GRAAGTALS,n.d. / n.d. / n.d. / n.d. / 2.40 / n.d.,2.40,1/18 (0.00)
GFTLNSYGIS,VIYSRCRRTFYDDSVK,GQLAGTFDS,n.d. / n.d. / n.d. / n.d. / n.d. / n.d.,n.d.,0/18
GFTLDSYGIS,VIYSDGRRTFYGDSIK,GRAAGTALS,n.d. / n.d. / n.d. / n.d. / n.d. / n.d.,n.d.,0/18
GFTLNSYGIS,VIKSDGRRTFYSDSVK,GRAGGTFDS,n.d. / n.d. / n.d. / 3.02 / n.d. / n.d.,3.02,0/18
GFTLNEYGIS,VIMSDGRRTFYTDSVK,GRFAGTFDS,n.d. / n.d. / n.d. / n.d. / n.d. / n.d.,n.d.,0/18
GFTSNEYGIS,VIYSDGRRTFYTDSVK,TRFAGTFDS,n.d. / n.d. / n.d. / n.d. / n.d. / n.d.,n.d.,0/18
GFTLNSYGIS,VIYSDGRRTFYQDSVK,GRAGGTFDS,n.d. / n.d. / n.d. / 2.80 / 1.64 / 3.22,2.56,0/18
GFTLNSYGSS,VIYADGRRTSYGDSVK,GRAAGTNKS,n.d. / n.d. / n.d. / n.d. / n.d. / n.d.,n.d.,0/18
GFTLNSYGIS,VIYSDGRRTFYSDSVK,GRAGWTFDS,n.d. / 2.23 / n.d. / n.d. / n.d. / n.d.,2.23,1/18 (1.57)
GFTLNEYGIS,VYYSDGRRTFYTDSVK,GRFAGTFDS,n.d. / n.d. / n.d. / n.d. / n.d. / n.d.,n.d.,0/18
GFTLNSYGIS,VIYSDTTRTFYSDSVK,GRWGGTFDA,n.d. / n.d. / n.d. / n.d. / n.d. / n.d.,n.d.,0/18
GFTLNQYGIS,VIYSDDRRTFYSDSVK,GRAAGFFDS,n.d. / n.d. / n.d. / n.d. / n.d. / n.d.,n.d.,0/18
GFDLNSYGIS,VIYSDGRRTFEGISVK,GRAAGWFNS,n.d. / n.d. / n.d. / n.d. / n.d. / n.d.,n.d.,0/18
GFTLNSYGIS,VIYSDGRRTFYDDSCK,GQLAGTFDS,n.d. / n.d. / 1.72 / n.d. / 2.46 / n.d.,2.09,0/18
GFYLNSYGIS,VIYADGRRTFYGVSVK,GRAAGTNKS,n.d. / n.d. / n.d. / n.d. / n.d. / n.d.,n.d.,0/18
GFDLNSYGIS,VIYSDGSRTFYGDSVK,GRAAGWFNS,n.d. / n.d. / n.d. / n.d. / n.d. / n.d.,n.d.,0/18
GFTLDSYGIS,VIYSDGRRTFYGDSHK,GRPIGTALS,n.d. / n.d. / n.d. / n.d. / n.d. / n.d.,n.d.,0/18

From the list, the first 5 with no signal in any replicate:

{"CDR-H1": "GFTLNDYGIS", "CDR-H2": "VIYSDGRRTFYGDSVK", "CDR-H3": "GRALMTKIS", "replicates, log10 nM": "n.d. / n.d. / n.d. / n.d. / n.d. / n.d.", "mean log10 Kd (nM)": "n.d.", "control signals": "0/18"}
{"CDR-H1": "GFTLNSYGIS", "CDR-H2": "VIYSDGRRTPYDDSVK", "CDR-H3": "GQWAGTFDS", "replicates, log10 nM": "n.d. / n.d. / n.d. / n.d. / n.d. / n.d.", "mean log10 Kd (nM)": "n.d.", "control signals": "0/18"}
{"CDR-H1": "GFTLNQYGIS", "CDR-H2": "VIYSDGRRTFYSDSVK", "CDR-H3": "GRAAGFNDS", "replicates, log10 nM": "n.d. / n.d. / n.d. / n.d. / n.d. / n.d.", "mean log10 Kd (nM)": "n.d.", "control signals": "0/18"}
{"CDR-H1": "GFDLNSYGIS", "CDR-H2": "VKYSDGRRTFYGDSGK", "CDR-H3": "GRAAGWFQS", "replicates, log10 nM": "n.d. / n.d. / n.d. / n.d. / n.d. / n.d.", "mean log10 Kd (nM)": "n.d.", "control signals": "0/18"}
{"CDR-H1": "GFTLNHYGIS", "CDR-H2": "VIYSCGRRTFYDDLVK", "CDR-H3": "GELARTFDS", "replicates, log10 nM": "n.d. / n.d. / n.d. / n.d. / n.d. / n.d.", "mean log10 Kd (nM)": "n.d.", "control signals": "0/18"}

Of ten entries with the parent sequence, four were seen in most replicates (averages 0.34 to 2.37), three in one and three in none, so single entries are noisy.
Empty control strains, which show no peptide, gave a signal in 1% of pairings with all heavy chain designs; the median was 2.08 and 95% of these signals were weaker than 0.84. No background was subtracted. The control count says in how many pairings with the empty strains this scFv gave a signal, with their mean in brackets.
In the paper, a design with two or fewer of six values counts as a poor binder.

Data: MIT Lincoln Laboratory AlphaSeq set, Li et al. 2023, doi:10.1038/s41467-023-39022-2, as distributed in FLAb.